Test results published in paper PMC9065038 (Scientific Reports, 2022).

By UniProt entry, the sequences of proteins in these tests, tags left out. Where a name states a change or a piece, a line headed by the entry shows the natural chain unless it says otherwise.
UniProt P35372, whole entry, looked up: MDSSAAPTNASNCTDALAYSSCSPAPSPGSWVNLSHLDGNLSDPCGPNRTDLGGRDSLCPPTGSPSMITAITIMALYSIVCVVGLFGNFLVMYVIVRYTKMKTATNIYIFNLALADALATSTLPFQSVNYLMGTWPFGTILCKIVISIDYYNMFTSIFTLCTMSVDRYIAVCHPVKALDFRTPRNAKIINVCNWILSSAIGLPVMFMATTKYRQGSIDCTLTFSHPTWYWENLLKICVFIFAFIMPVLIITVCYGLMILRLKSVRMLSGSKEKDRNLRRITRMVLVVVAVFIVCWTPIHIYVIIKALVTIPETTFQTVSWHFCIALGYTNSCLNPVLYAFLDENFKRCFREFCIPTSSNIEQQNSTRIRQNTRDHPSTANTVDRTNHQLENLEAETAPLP
UniProt P41146: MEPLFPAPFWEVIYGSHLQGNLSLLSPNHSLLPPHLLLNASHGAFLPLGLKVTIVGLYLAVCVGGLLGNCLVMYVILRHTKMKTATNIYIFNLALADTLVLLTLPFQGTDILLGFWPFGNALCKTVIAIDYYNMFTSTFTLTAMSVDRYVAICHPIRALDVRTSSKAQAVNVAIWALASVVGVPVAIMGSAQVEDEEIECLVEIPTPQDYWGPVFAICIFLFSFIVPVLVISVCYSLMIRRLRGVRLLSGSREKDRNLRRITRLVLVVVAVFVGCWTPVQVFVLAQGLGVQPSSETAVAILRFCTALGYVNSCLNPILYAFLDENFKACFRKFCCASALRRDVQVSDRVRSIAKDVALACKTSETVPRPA

How the values were obtained:
human MOP [1] = target: T1, human MOP (Homo sapiens, UniProt P35372); assay: Radioligand displacement competition binding, [3H]DAMGO, CHO cell membranes
[2] = nonhuman primates; cited from earlier work
[3] = human clinical trials; cited from earlier work
human NOP [4] = target: T2, human NOP (Homo sapiens, UniProt P41146); assay: [35S]GTPγS binding assay, CHO cell membranes; settings: relative to N/OFQ
human MOP [5] = target: T1, human MOP; assay: [35S]GTPγS binding assay, CHO cell membranes; settings: relative to DAMGO
human NOP [6] = target: T2, human NOP; assay: Radioligand displacement competition binding, [3H]N/OFQ, CHO cell membranes
human NOP [7] = target: T2, human NOP; assay: GIRK channel-based fluorescent membrane potential assay in AtT-20 cells
human MOP [8] = target: T1, human MOP; assay: as above

Row | SMILES | affinity at MOP (in words) (human MOP [1]) | reinforcing effects [2] | respiratory or motor deficits, itching [2] | drug liking [3] | agonist efficacy at NOP in [35S]GTPγS binding (in words) (human NOP [4]) | agonist efficacy at MOP in [35S]GTPγS binding (in words) (human MOP [5]) | affinity at NOP (in words) (human NOP [6]; radioligand displacement) | Ki (human NOP [6]; read-out: Radioligand Displacement Ki, NOP, CHO cells stably expressing NOP, [3H]N/OFQ) [nM] | agonist efficacy at NOP in GIRK assay (in words) (human NOP [7]; compared to N/OFQ) | EC50 (human NOP [7]; read-out: GIRK NOP EC50, stably transfected AtT-20 cells) [nM] | agonist efficacy at MOP in GIRK assay (in words) (human MOP [8]; compared to DAMGO) | EC50 (human MOP [8]; read-out: GIRK MOP EC50, stably transfected AtT-20 cells) [nM]
1 | CN(C)[C@]1(c2ccccc2)CC[C@]2(CC1)OCCc1c3cc(F)ccc3[nH]c12 | high affinity | produced reinforcing effects | did not elicit respiratory or motor deficits, or itching | produced drug liking | – | – | – | – | – | – | – | –
2 | O=C1Cc2ccccc2N1C1CCN(C2C3CCCC2CCC3)CC1 (stereo not drawn) [AT-201, 1-(1-(bicyclo[3.3.1]nonan-9-yl)piperidin-4-yl)indolin-2-one] | – | – | – | – | partial agonist efficacy | partial agonist efficacy | high affinity | 5.36 | partial agonist efficacy | 6.3 | high agonist efficacy | 3.3
